Data as given in patent publication US11401286B2 (Tetra Discovery Partners, LLC, priority 2012, dated 2022).
Where a name gives a salt, the structure may show the parent alone.

Molecular target: human PDE4D7 containing UCR1 activating mutation S54D (PDE4D7*) (Homo sapiens (Human), UniProt Q08499, S129D)
Experiment: biochemical

Structure (SMILES) | IC50
O=C(O)Cc1ccc(Nc2cc(C(F)(F)F)nc(-c3ccc(Cl)s3)n2)cc1 [Example 296, 2-[4-[[2-(5-Chloro-2-thienyl)-6-(trifluoromethyl)pyrimidin-4-yl]amino]phenyl]acetic acid] | > 1 µM
CCNC(=O)Cc1ccc(Nc2nc(-c3ccc(Cl)s3)nc(C)c2CC)cc1 [Example 309, 2-[4-[[2-(5-Chloro-2-thienyl)-5-ethyl-6-methyl-pyrimidin-4-yl]amino]phenyl]-N-ethyl-acetamide] | < 1 µM
Clc1ccc(-c2nc3c(c(Nc4ccc(Cc5nnn[nH]5)cc4)n2)CCC3)s1 [Example 74, 2-(5-Chloro-2-thienyl)-N-[4-(1H-tetrazol-5-ylmethyl)phenyl]-6,7-dihydro-5H-cyclopenta[d]pyrimidin-4-amine] | < 1 µM
OB1OCc2cc(Nc3nc(-c4ccc(Cl)cc4)nc4c3CCC4)ccc21 [Example 295, 2-(4-Chlorophenyl)-N-(1-hydroxy-3H-2,1-benzoxaborol-5-yl)-6,7-dihydro-5H-cyclopenta[d]pyrimidin-4-amine] | < 1 µM
O=C(O)c1ccc(CNc2nc(-c3cccc(Cl)c3)nc(C3CC3)n2)cc1 [Example 46, 4-(((4-(3-chlorophenyl)-6-cyclopropyl-1,3,5-triazin-2-yl)amino)methyl)benzoic acid] | < 1 µM
CCc1nc(Nc2ccc(Cc3nnn[nH]3)cc2)nc(-c2cccc(Cl)c2)n1 [Example 55, N-(4-((2H-tetrazol-5-yl)methyl)phenyl)-4-(3-chlorophenyl)-6-ethyl-1,3,5-triazin-2-amine] | < 1 µM
CCc1c(C)nc(-c2ccc(Cl)s2)nc1Nc1ccc(Cc2nc(C(=O)OC)c[nH]2)cc1 [Example 305, Methyl 2-[[4-[[2-(5-chloro-2-thienyl)-5-ethyl-6-methyl-pyrimidin-4-yl]amino]phenyl]methyl]-1H-imidazole-4-carboxylate] | < 1 µM
O=C(O)Cc1ccc(Nc2nc(-c3cccc(Cl)c3)nc3c2CCC3)cc1 [Example 10, 2-[4-[[2-(3-Chlorophenyl)-6,7-dihydro-5H-cyclopenta[d]pyrimidin-4-yl]amino]phenyl]acetic acid] | > 1 µM
O=C(O)CCc1ccc(Nc2nc(-c3cccc(Cl)c3)nc3c2CCC3)cc1 [Example 16, 3-[4-[[2-(3-Chlorophenyl)-6,7-dihydro-5H-cyclopenta[d]pyrimidin-4-yl]amino]phenyl]propanoic acid] | < 1 µM
NC(=O)Cc1ccc(Nc2cc(C3CC3)nc(-c3cccc(Cl)c3)n2)nc1 [Example 212, 2-(6-((2-(3-Chlorophenyl)-6-cyclopropylpyrimidin-4-yl)amino)pyridin-3-yl)acetamide] | > 1 µM
CCc1nc(Nc2ccc(CC(=O)O)cc2)nc(-c2cccc(Cl)c2)n1 [Example 39, 2-(4-((4-(3-chlorophenyl)-6-ethyl-1,3,5-triazin-2-yl)amino)phenyl)acetic acid] | < 1 µM
CCc1c(C)nc(-c2ccc(Cl)s2)nc1Nc1ccc(C2=C(O)CCC2=O)cc1 [Example 303, 2-[4-[[2-(5-Chloro-2-thienyl)-5-ethyl-6-methyl-pyrimidin-4-yl]amino]phenyl]-3-hydroxy-cyclopent-2-en-1-one] | > 1 µM
O=C(O)Cc1ccc(Nc2cc(-c3cccc(Cl)c3)nc3c2CCC3)cc1 [Example 2, 2-[4-[[2-(3-Chlorophenyl)-6,7-dihydro-5H-cyclopenta[b]pyridin-4-yl]amino]phenyl]acetic acid] | > 1 µM
CCc1c(C)nc(-c2ccc(Cl)s2)nc1Nc1ccc(Cc2nc(C(N)=O)c[nH]2)cc1 [Example 310, 2-[[4-[[2-(5-Chloro-2-thienyl)-5-ethyl-6-methyl-pyrimidin-4-yl]amino]phenyl]methyl]-1H-imidazole-4-carboxamide] | > 1 µM
FC(F)(F)c1cc(Nc2ccc(Cc3nn[nH]n3)cc2)nc(-c2ccc(Cl)s2)n1 [Example 79, 2-(5-Chloro-2-thienyl)-N-[4-(2H-tetrazol-5-ylmethyl)phenyl]-6-(trifluoromethyl)pyrimidin-4-amine] | < 1 µM
CCc1c(C)nc(-c2ccc(Cl)s2)nc1Nc1ccc(-c2nnn[nH]2)cc1 [Example 76, 2-(5-Chloro-2-thienyl)-5-ethyl-6-methyl-N-[4-(1H-tetrazol-5-yl)phenyl]pyrimidin-4-amine] | < 1 µM
OB1OCc2cc(Nc3nc(-c4cccc(Cl)c4)nc4c3CCC4)ccc21 [Example 294, 2-(3-Chlorophenyl)-N-(1-hydroxy-3H-2,1-benzoxaborol-5-yl)-6,7-dihydro-5H-cyclopenta[d]pyrimidin-4-amine] | > 1 µM
CCc1nc(Nc2ccc(C(C)C(=O)O)cc2)nc(-c2cccc(Cl)c2)n1 (stereo not shown) [Example 59, 2-(4-(4-(3-chlorophenyl)-6-ethyl-1,3,5-triazin-2-ylamino)phenyl)propanoic acid] | < 1 µM
CCc1cc(Cc2ccc(CC(=O)O)cc2)nc(-c2cccc(Cl)c2)n1 [Example 66, 2-(4-((2-(3-chlorophenyl)-6-ethylpyrimidin-4-yl)methyl)phenyl)acetic acid] | < 1 µM
OCCc1ccc(Nc2nc(C3CCCC3)nc3c2SCCC3)cc1 [Example 283, 2-(4-((2-Cyclopentyl-7,8-dihydro-6H-thiopyrano[3,2-d]pyrimidin-4-yl)amino)phenyl)ethanol] | < 1 µM

Structure (SMILES) | IC50
NC(=O)Cc1ccc(Nc2nc(-c3cccc(Cl)c3)nc3c2CCCC3)cc1 [Example 234, 2-(4-((2-(3-Chlorophenyl)-5,6,7,8-tetrahydroquinazolin-4-yl)amino)phenyl)acetamide] | < 1 µM
NC(=O)Cc1ccc(Nc2nc(C3CCCC3)nc3c2S(=O)(=O)CCC3)cc1 [Example 286, 2-(4-((2-cyclopentyl-5,5-dioxido-7,8-dihydro-6H-thiopyrano[3,2-d]pyrimidin-4-yl)amino)phenyl)acetamide] | < 1 µM
Cc1ccc(Cc2nc(-c3cccc(Cl)c3)nc3c2CCC3)cc1 [Example 69, 2-(3-Chlorophenyl)-4-(4-methylbenzyl)-6,7-dihydro-5H-cyclopenta[d]pyrimidine] | < 1 µM
O=C1CCC(NC2=NC(C3CC3)NC(c3cccc(Cl)c3)=N2)CN1 (stereo not shown) [Example 49, 5-((6-(3-chlorophenyl)-4-cyclopropyl-4,5-dihydro-1,3,5-triazin-2-yl)amino)piperidin-2-one] | > 1 µM
CCc1c(C)nc(-c2ccc(Cl)s2)nc1Nc1ccc(Cc2noc(=O)[nH]2)cc1 [Example 302, 3-[[4-[[2-(5-Chloro-2-thienyl)-5-ethyl-6-methyl-pyrimidin-4-yl]amino]phenyl]methyl]-4H-1,2,4-oxadiazol-5-one] | > 1 µM
NC(C(=O)O)c1ccc(Nc2nc(-c3ccc(Cl)s3)nc3c2CCC3)cc1 (stereo not shown) [Example 12, 2-Amino-2-[4-[[2-(5-chloro-2-thienyl)-6,7-dihydro-5H-cyclopenta[d]pyrimidin-4-yl]amino]phenyl]acetic acid hydrochloride] | > 1 µM
Clc1cccc(-c2nc3c(c(Nc4ccc(Cc5nnn[nH]5)cc4)n2)CCC3)c1 [Example 78, 2-(3-Chlorophenyl)-N-[4-(1H-tetrazol-5-ylmethyl)phenyl]-6,7-dihydro-5H-cyclopenta[d]pyrimidin-4-amine] | < 1 µM
Clc1cccc(-c2nc3c(c(Nc4ccc(Cc5nn[nH]n5)cc4)n2)SCCC3)c1 [Example 313, 2-(3-Chlorophenyl)-N-[4-(2H-tetrazol-5-ylmethyl)phenyl]-7,8-dihydro-6H-thiopyrano[3,2-d]pyrimidin-4-amine] | < 1 µM
CCc1nc(Nc2ccc(C(N)=O)cc2)nc(-c2cccc(Cl)c2)n1 [Example 62, 4-(4-(3-chlorophenyl)-6-ethyl-1,3,5-triazin-2-ylamino)benzamide] | < 1 µM
Clc1cccc(-c2nc3c(c(Nc4ccc(-c5nnn[nH]5)cc4)n2)CCC3)c1 [Example 75, 2-(3-Chlorophenyl)-N-[4-(1H-tetrazol-5-yl)phenyl]-6,7-dihydro-5H-cyclopenta[d]pyrimidin-4-amine] | < 1 µM
OB1OCc2cc(Nc3nc(-c4ccc(Cl)s4)nc4c3CCC4)ccc21 [Example 293, 2-(5-Chloro-2-thienyl)-N-(1-hydroxy-3H-2,1-benzoxaborol-5-yl)-6,7-dihydro-5H-cyclopenta[d]pyrimidin-4-amine] | < 1 µM
O=C(O)Cc1ccc(Nc2nc(-c3ccc(Cl)s3)nc(C3CC3)n2)cc1 [Example 34, 2-(4-(4-(5-chlorothiophen-2-yl)-6-cyclopropyl-1,3,5-triazin-2-ylamino)phenyl)acetic acid] | > 1 µM
CCc1cc(Cc2ccc(CCO)cc2)nc(-c2cccc(Cl)c2)n1 [Example 67, 2-(4-((2-(3-Chlorophenyl)-6-ethylpyrimidin-4-yl)methyl)phenyl)ethanol] | < 1 µM
CCc1c(C)nc(-c2ccc(Cl)s2)nc1Nc1ccc2c(c1)B(O)OC2 [Example 72, 2-(5-Chloro-2-thienyl)-5-ethyl-N-(1-hydroxy-3H-2,1-benzoxaborol-6-yl)-6-methyl-pyrimidin-4-amine] | > 1 µM
Cc1ccc(C(=O)c2nc(-c3cccc(Cl)c3)nc3c2CCC3)cc1 [Example 70, (2-(3-Chlorophenyl)-6,7-dihydro-5H-cyclopenta[d]pyrimidin-4-yl)(p-tolyl)methanone] | > 1 µM
N#CNC(=O)Cc1ccc(Nc2nc(-c3cccc(Cl)c3)nc3c2SCCC3)cc1 [Example 314, 2-[4-[[2-(3-Chlorophenyl)-7,8-dihydro-6H-thiopyrano[3,2-d]pyrimidin-4-yl]amino]phenyl]-N-cyano-acetamide] | < 1 µM
O=C(O)Cc1ccc(Nc2nc(-c3ccc(Cl)s3)nc3c2CCC3)cc1 [Example 9, 2-[4-[[2-(5-Chloro-2-thienyl)-6,7-dihydro-5H-cyclopenta[d]pyrimidin-4-yl]amino]phenyl]acetic acid] | < 1 µM
CCc1nc(NC2CCN(CC(=O)O)CC2)nc(-c2cccc(Cl)c2)n1 [Example 64, 2-(4-((4-(3-chlorophenyl)-6-ethyl-1,3,5-triazin-2-yl)amino)piperidin-1-yl)acetic acid] | > 1 µM
OCCc1ccc(Nc2cc(C3CC3)nc(-c3cccc(Cl)c3)n2)nc1 [Example 214] | < 1 µM
OCC(O)c1ccc(Nc2cc(-c3cccc(Cl)c3)nc3c2CCC3)cc1 (stereo not shown) [Example 115, 1-(4-((2-(3-Chlorophenyl)-6,7-dihydro-5H-cyclopenta[b]pyridin-4-yl)amino)phenyl)ethane-1,2-diol hydrochloride] | < 1 µM
